# Curated experimental data: melting point values

Values as listed in the OPERA 2.9 repository of K. Mansouri.

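The OPERA project collected these measurements from public sources as training and test data for property models. A listed value is a point estimate from one report or more. Method and conditions are not stated for these values. The measured form (salt, isomer or mixture) is not always the one drawn. Some upstream entries may be estimates or bounds without being marked so.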

Melting points are in °C.
"via" names the databases from which the curators took the value.

SMILES,MP (°C),via
Nc1c(F)cc(O)cc1F,148.5,OCHEM
FC(F)(Cl)C(F)(F)S(F)(F)(F)(F)F,-113,ChemicalBook
COc1ccc(C(C)=O)c2ccccc12,65,OCHEM
CC(=O)Oc1ccccc1C(=O)OCC(=O)N(C)CC(N)=O,132,OCHEM
COc1cc(N)ccc1N1CCCC1=O,127,OCHEM
CC(C)C(=O)Nc1ccc(N)cc1,75,OCHEM
Cc1n[nH]c(C)c1CCC(=O)O,170,OCHEM
Cc1cccc(F)c1C#N,46,OCHEM
COc1ccccc1OCC(O)=NN,102,OCHEM
O=P(O)(OCCC(F)(F)C(F)(F)C(F)(F)C(F)(F)C(F)(F)C(F)(F)F)OCCC(F)(F)C(F)(F)C(F)(F)C(F)(F)C(F)(F)C(F)(F)F,63,ChemicalBook
COc1cc(C(=O)O)cc(OC)c1OCc1ccccc1,157,OCHEM
CC(C)(C#N)C(=O)O,55,OCHEM
CCC(CCCO)(C(=O)O)C(=O)O,132,eChemPortal
CCN(CC)S(=O)(=O)c1ccc(N)c(N)c1,125,OCHEM
Cc1ccc(S(N)(=O)=O)cc1N,177,OCHEM
COc1cc(C(=O)O)ccc1OCC(C)C,146,OCHEM
Cc1ccc(S(N)(=O)=O)cc1Cl,136.5,OCHEM
CCCCCCCCCCCC[N+](C)(C)CC(O)CS(=O)(=O)[O-] (stereo unspecified),307.6,eChemPortal
O=C(O)CCCNc1ccc([N+](=O)[O-])cc1,159,OCHEM
O=C(O)CCc1ccc(S(=O)(=O)N2CCCC2)cc1,138,OCHEM
Cc1ncncc1C(=O)O,175,OCHEM
Cc1ccc(N=C=S)c([N+](=O)[O-])c1,64.5,OCHEM
CNc1nc2ccccc2o1,100,OCHEM
CCOC(=O)CCc1ccco1,24.5,PubChem
Cc1sc2nc(C)n(N)c(=O)c2c1C,205,OCHEM
O=C(O)Cn1nnc(-c2cccs2)n1,221,OCHEM
CCC1(CC)NC(=O)NC1=O,181,OCHEM
COc1cc(C=O)ccc1OCC(=O)N1CCOCC1,99,OCHEM
CC(NC(=O)c1ccccc1N)c1ccccc1 (stereo unspecified),128,OCHEM
ClCc1ncc(-c2ccc(Cl)cc2)o1,55,OCHEM
Fc1ccc(-c2nc(CCl)no2)cc1,53,OCHEM
O=C(O)C1CC(=O)N(c2cccc(Cl)c2)C1 (stereo unspecified),134,OCHEM
O=C(O)Cc1coc(-c2ccccc2)n1,149,OCHEM
O=c1c(Cl)c(Cl)cnn1-c1ccc(Cl)cc1Cl,201,OCHEM
Nc1ccc2[nH]c(=O)c(=O)[nH]c2c1,353,OCHEM
CCCCO[Si](C)(C)OCCCC,-81.4,eChemPortal
BrCCC(c1ccccc1)c1ccccc1,40.5,OCHEM
O=Cc1cc(Br)c(OCc2ccccc2)c(Br)c1,79,OCHEM
COC(=O)c1ccc2[nH]ncc2c1,194,OCHEM
Clc1ccc(Cl)c2cnccc12,97.5,OCHEM
O=C(O)c1ccccc1SCc1cccs1,179,OCHEM
COc1ccc(C)cc1C=CC(=O)O,142,OCHEM
NC(=O)Cc1cccs1,146.5,OCHEM

The first 5 entries again:

{"smiles": "Nc1c(F)cc(O)cc1F", "MP (°C)": "148.5", "via": "OCHEM"}
{"smiles": "FC(F)(Cl)C(F)(F)S(F)(F)(F)(F)F", "MP (°C)": "-113", "via": "ChemicalBook"}
{"smiles": "COc1ccc(C(C)=O)c2ccccc12", "MP (°C)": "65", "via": "OCHEM"}
{"smiles": "CC(=O)Oc1ccccc1C(=O)OCC(=O)N(C)CC(N)=O", "MP (°C)": "132", "via": "OCHEM"}
{"smiles": "COc1cc(N)ccc1N1CCCC1=O", "MP (°C)": "127", "via": "OCHEM"}